Patent US11459499B2, “Amidoamine-based gemini surfactant containing ethoxylate units and a method for oil recovery” (King Fahd University of Petroleum and Minerals, priority 2018, dated 2022)

Key:
[1] = 10 wt % solution, table title says room temperature; for solubility in DW: deionized water; for solubility in FW: formation water (214 g/L salts); for solubility in SW: sea water (57.7 g/L salts)
[2] = AM-AMPS copolymer, 80° C.
[3] = due to evaporation of organic solvents and water; 20° C./min, nitrogen
[4] = 30° C.

| Substance | solubility in DW [1] | solubility in FW [1] | solubility in SW [1] | influence of surfactant concentration on polymer viscosity ([2]; high shear rate) | storage modulus and polymer viscosity upon increasing concentration of the surfactant ([2]; low shear rate) | foam height in SW versus DW (0.1 wt % surfactant) | initial foam height (surfactant concentration 0.1%, ambient temperature) [mm] | initial loss in weight (TGA) [3] | change in cmc upon enhancing salinity ([4]; DW versus SW) | Amin ([4]; DW) [nm^2] | cmc ([4]; DW) [mol/L] | Γmax × 10^6 ([4]; DW) [mol/m^2] | γcmc ([4]; DW) [mN/m] | πcmc ([4]; DW) [mN/m] | Amin ([4]; SW) [nm^2] | cmc ([4]; SW) [mol/L] | Γmax × 10^6 ([4]; SW) [mol/m^2] | γcmc ([4]; SW) [mN/m] | πcmc ([4]; SW) [mN/m] |
| --- | --- | --- | --- | --- | --- | --- | --- | --- | --- | --- | --- | --- | --- | --- | --- | --- | --- | --- | --- |
| cationic poly(ethylene oxide) gemini surfactant [12-E1-12] | Transparent | Severe precipitation | Precipitation | – | – | – | – | – | – | – | – | – | – | – | – | – | – | – | – |
| cationic poly(ethylene oxide) gemini surfactant [12-E2-12] | Transparent | Transparent | Transparent | insignificant | reduced | greater in SW than in DW | 90 | about 25% | decrease | 2.83 | 5.02e-05 | 0.58 | 38.66 | 33.34 | 3.12 | 3.91e-05 | 0.53 | 36.12 | 35.08 |

Like-named read-outs stand apart in the source and are kept apart here.
